Literature values in patent publication US6815446B1, “Selective antagonists of A2B adenosine receptors” (Vanderbilt University, priority 1999, dated 2004).

Biological target: T1, A2B Receptor (Homo sapiens, UniProt P29275)
T1 sequence (P29275 1-332): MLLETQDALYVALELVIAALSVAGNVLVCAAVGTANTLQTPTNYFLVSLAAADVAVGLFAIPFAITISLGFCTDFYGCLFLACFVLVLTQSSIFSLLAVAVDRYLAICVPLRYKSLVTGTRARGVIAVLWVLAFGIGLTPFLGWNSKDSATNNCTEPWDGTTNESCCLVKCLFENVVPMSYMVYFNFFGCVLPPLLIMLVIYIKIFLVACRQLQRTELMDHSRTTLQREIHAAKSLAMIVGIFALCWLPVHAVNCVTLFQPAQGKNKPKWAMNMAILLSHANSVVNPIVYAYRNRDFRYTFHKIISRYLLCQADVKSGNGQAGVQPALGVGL
Conditions: background statement; cited from earlier work

CNC(=O)[C@H]1O[C@@H](n2cnc3c(NCc4cccc(I)c4)ncnc32)[C@H](O)[C@@H]1O [IB-MECA]
Agonist activity or affinity at A2B receptors: very low affinity
